{
  "sequences": {"note": "The chains behind the UniProt entries cited, without tags or fusion partners.", "UniProt O43194, whole entry": "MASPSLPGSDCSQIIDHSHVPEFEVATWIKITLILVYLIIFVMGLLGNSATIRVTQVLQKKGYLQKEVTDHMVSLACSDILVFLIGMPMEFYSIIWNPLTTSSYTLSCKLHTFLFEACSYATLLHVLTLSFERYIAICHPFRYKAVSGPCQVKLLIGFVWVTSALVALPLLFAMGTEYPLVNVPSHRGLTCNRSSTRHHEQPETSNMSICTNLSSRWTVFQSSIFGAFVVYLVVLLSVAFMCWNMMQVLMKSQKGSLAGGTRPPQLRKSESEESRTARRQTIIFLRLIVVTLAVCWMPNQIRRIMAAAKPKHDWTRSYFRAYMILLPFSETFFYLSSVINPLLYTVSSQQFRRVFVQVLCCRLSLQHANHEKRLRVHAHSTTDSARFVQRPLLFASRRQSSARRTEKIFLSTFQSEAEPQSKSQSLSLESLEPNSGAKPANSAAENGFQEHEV"},
  "source": "patent US20230174484A1",
  "about": "“ANTAGONISTS OF GPR39 PROTEIN” (Oregon Health & Science University, priority 2020, published 2023)",
  "biological_target": "human GPR39 receptor (Homo sapiens, UniProt O43194)",
  "test": "Measurement of intracellular calcium response in PC3 cells (FLIPR), antagonism of the C3 agonist response",
  "type": "cell-based",
  "conditions": "functional pKi (modified Cheng-Prusoff), inhibition of the C3 (TC-G 1008) response at EC90, 30 μM ZnCl2",
  "method": "Human prostate adenocarcinoma (PC3) cells endogenously expressing human GPR39 receptor were seeded into black walls clear-base 384-well plates at a density of 7,500 cells per well in DM EM (Low Glucose) supplemented with 10% heat-inactivated foetal bovine serum and 1% of Pen/Strep and grown overnight at 37° C., 5% CO2. After washing with assay buffer (20 mM HEPES, 137 mM NaCI, 5.4 mM KCI, 10 mM glucose, 0.8 mM MgSO4, 1.3 mM CaCl2, 0.3 mM Na2HPO4, 0.4 mM KH2PO4 4.2 mM NaHCO3, pH 7.4), cells were incubated with Calcium-6 probe (Molecular Devices) at 37° C. for 2h and then equilibrated at RT for 30 minutes on metal block. The fluorescence was measured in real time by Fluorometric Imaging Plate Reader (FLIPR TETRA, Molecular Devices) (excitation wavelength at 470-495 nm, emission wavelength at 515-575 nm).\nCompounds of invention were serially diluted in neat DMSO at 1000 fold concentrations and plated into 384-well plates and then 200-fold diluted in assay buffer containing 150 uM ZnCl2 (30 μM final concentration) and […]. […]\nFluorescence was monitored throughout the run assay. The peak of Ca2+stimulation (baseline subtracted) was expressed as percentage of the maximal inhibition of the EC90 C3 response and was plotted versus the concentration of test compound. […]",
  "data": [
    {"compound": "Cn1c(Sc2cccnc2)nnc1-c1ccc(NC(=O)C2CC2)cc1N1CCCC1", "values": [
      {"measurement": "fpKi activity", "value": "+ (An fpKi ranging from 5.2 to 5.9 is reported as “+”)"}
    ]}
  ]
}
